# Earlier results as cited in article PMC3220680, “Microsecond Molecular Dynamics Simulations of Intrinsically Disordered Proteins Involved in the Oxidative Stress Response” (PLoS ONE, 2011).
# Protein sequences, listed by entry. Tags and fused reporters are not part of them. Residues count along the entry.
# UniProt Q9Z2X8, 309-624: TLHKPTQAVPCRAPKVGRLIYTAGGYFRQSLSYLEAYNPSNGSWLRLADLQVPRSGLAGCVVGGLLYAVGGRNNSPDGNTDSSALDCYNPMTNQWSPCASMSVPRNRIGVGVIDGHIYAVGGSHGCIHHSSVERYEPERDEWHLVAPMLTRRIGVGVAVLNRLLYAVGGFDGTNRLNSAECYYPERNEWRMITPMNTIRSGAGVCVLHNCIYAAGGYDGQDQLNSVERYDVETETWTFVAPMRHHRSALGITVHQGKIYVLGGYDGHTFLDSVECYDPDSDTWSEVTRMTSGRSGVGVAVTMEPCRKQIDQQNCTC
# UniProt Q60795, whole entry, looked up, tested part not stated: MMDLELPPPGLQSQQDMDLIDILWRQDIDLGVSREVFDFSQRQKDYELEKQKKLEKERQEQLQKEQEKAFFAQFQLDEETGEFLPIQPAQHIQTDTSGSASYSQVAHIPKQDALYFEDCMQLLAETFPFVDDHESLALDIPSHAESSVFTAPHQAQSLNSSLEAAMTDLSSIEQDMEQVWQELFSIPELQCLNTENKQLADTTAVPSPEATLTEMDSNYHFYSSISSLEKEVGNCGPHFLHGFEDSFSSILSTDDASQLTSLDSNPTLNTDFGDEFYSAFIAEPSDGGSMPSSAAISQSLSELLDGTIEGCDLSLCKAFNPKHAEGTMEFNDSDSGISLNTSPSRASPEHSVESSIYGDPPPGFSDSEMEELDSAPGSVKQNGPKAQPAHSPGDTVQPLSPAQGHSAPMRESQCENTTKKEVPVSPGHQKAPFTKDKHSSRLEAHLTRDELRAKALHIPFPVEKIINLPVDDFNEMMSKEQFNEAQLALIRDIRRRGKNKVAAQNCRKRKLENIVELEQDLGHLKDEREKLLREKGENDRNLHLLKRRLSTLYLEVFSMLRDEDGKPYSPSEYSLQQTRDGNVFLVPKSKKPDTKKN
# Molecular target: Keap1 Kelch (Mus musculus) (UniProt Q9Z2X8)
# Experiment: ITC
# Details: cited from earlier work
substance,measurement,value
Nrf2 ETGE 9-mer peptide 9-mer ETGE peptide (from UniProt Q60795),Kd,0.182 µM
